## Ab-14 heavy chain CDR variants: yeast mating affinities

Target: peptide PDVDLGDISGINAS, taken from heptad repeat 2 (HR2) of SARS-CoV-2 spike.

Each scFv is VH, the linker GGGGSGGGGSGGGGS, VL, as in the parent Ab-14, and differs from it in the CDRs of the heavy chain only.
VH: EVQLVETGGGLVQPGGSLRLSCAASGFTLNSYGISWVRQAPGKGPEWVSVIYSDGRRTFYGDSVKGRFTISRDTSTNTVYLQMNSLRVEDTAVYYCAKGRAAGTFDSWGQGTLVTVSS
VL: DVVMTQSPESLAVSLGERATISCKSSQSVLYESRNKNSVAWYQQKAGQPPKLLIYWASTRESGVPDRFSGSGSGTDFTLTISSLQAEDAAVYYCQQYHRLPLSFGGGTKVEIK

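The starting antibody came from a phage panning campaign against this peptide. Designed CDR sequences, proposed from the first random library and measured here. Several design methods are mixed in this list. AlphaSeq pools MATa yeast showing the antibodies with MATalpha yeast showing the peptide. After mating in shaken culture at 30 °C for 16 h, diploids were selected and their barcode pairs sequenced. Scores were corrected for input abundance and mapped to Kd with protein pairs of known affinity run in the same pool. There are six technical replicates.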

The whole VH of each variant is written out. The read-out is the apparent dissociation constant on a log10 scale (nM): the lower, the stronger. A mean of the replicates is given; it leaves out those without a signal. "nd" means that the variant was in the library but no mating with the target was seen in that replicate; the authors take this as a sign of poor binding, and no number exists. Entries are sorted by rising average, undetected variants last. The authors' rule: three or more of the six replicates give a measured affinity, fewer mean a poor binder.

With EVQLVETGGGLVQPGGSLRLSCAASGFDLDEYGISWVRQAPGKGPEWVSVIYADGMRTAYADKVKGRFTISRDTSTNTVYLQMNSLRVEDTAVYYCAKGEVAGTFDVWGQGTLVTVSS the result was -0.44, -1.00, -0.99, -1.15, -0.88, -0.69 (mean -0.86; controls 0 of 18).
With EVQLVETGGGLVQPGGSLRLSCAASGFDLNEYGISWVRQAPGKGPEWVSVIYADGKRTAYSDSVKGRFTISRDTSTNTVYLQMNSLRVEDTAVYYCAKGENAGTFDLWGQGTLVTVSS the result was -0.01, -0.49, -0.46, -0.06, -0.70, -0.76 (mean -0.41; controls 0 of 18).
With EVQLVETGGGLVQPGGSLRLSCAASGFDLNEYGISWVRQAPGKGPEWVSVIYADGVRTFYADDVKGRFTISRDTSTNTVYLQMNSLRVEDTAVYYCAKGNVAGTFDVWGQGTLVTVSS the result was -0.35, -0.08, -0.61, -0.41, -0.24, -0.30 (mean -0.33; controls 0 of 18).
With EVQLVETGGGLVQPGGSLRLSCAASGFELNTYGISWVRQAPGKGPEWVSVIYSDGRRTFYADSVKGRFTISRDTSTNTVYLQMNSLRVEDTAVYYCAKGRLAGTFDSWGQGTLVTVSS the result was -0.16, -0.02, -0.29, -0.13, 0.06, -0.18 (mean -0.12; controls 1 of 18).
With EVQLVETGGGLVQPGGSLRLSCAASGFDLNEYGISWVRQAPGKGPEWVSVIYADGRRTSYIDSVKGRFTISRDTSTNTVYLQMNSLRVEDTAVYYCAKGENAGTFDMWGQGTLVTVSS the result was -0.45, 0.70, -0.53, -0.45, 0.62, 0.00 (mean -0.02; controls 0 of 18).
With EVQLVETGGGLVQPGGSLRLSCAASGFTLNSYGISWVRQAPGKGPEWVSVIYSDGRRTFYADSVKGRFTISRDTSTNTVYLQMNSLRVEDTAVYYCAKGWTAGTFDSWGQGTLVTVSS the result was nd, nd, -0.24, -0.41, nd, 0.92 (mean 0.09; controls 0 of 18).
With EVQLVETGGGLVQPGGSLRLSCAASGFDLNSYGISWVRQAPGKGPEWVSVIYSDGQRTFYGDSVKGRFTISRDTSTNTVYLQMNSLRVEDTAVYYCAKGNAAGTFDSWGQGTLVTVSS the result was 0.65, 0.66, 0.84, 0.18, 0.45, 0.62 (mean 0.57; controls 0 of 18).
With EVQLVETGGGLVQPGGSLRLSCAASGFTLNQYGISWVRQAPGKGPEWVSVIYSDGRRTFYIDSVKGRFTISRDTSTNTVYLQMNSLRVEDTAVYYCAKGRQAGTFDSWGQGTLVTVSS the result was 0.64, 0.83, 0.67, 0.39, 0.57, 0.75 (mean 0.64; controls 0 of 18).
With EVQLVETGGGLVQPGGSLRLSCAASGFDLDEYGISWVRQAPGKGPEWVSVIYADGRRTAYADSVKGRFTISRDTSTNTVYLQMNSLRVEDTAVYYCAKGTNAGTFLSWGQGTLVTVSS the result was 1.04, 0.90, 0.93, 0.53, 0.87, 1.04 (mean 0.89; controls 0 of 18).
With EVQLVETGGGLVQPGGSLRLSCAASGFDLNSYGISWVRQAPGKGPEWVSVIYSDGRRTFYIDRVKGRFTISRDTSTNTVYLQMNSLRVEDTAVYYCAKGNAAGTFDSWGQGTLVTVSS the result was 0.72, 0.72, 0.90, 1.16, 0.79, 1.14 (mean 0.90; controls 2 of 18).
With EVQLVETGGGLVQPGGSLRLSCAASGFTLNSYGISWVRQAPGKGPEWVSVIYSDGRRTFYADQVKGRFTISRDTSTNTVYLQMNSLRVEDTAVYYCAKIRAAGTFHSWGQGTLVTVSS the result was 1.01, 2.05, 1.55, 1.26, 0.54, 0.52 (mean 1.15; controls 0 of 18).
With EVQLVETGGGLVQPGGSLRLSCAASGFKLNSYGISWVRQAPGKGPEWVSVIYSDGRRTFYGDSVKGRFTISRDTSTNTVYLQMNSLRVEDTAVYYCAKGQEAGTFDSWGQGTLVTVSS the result was 1.77, nd, nd, nd, 0.93, nd (mean 1.35; controls 0 of 18).

Further variants, results first:

nd, 1.40, 1.47, 1.68, 1.36, 1.25 (mean 1.43; controls 1 of 18): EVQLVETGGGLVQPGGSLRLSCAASGFTLNQYGISWVRQAPGKGPEWVSVIYSDGRRTFYIDSVKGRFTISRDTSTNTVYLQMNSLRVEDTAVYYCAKGRAAGTFDSWGQGTLVTVSS.
1.50, 0.90, 1.17, 2.09, 1.72, 1.83 (mean 1.54; controls 0 of 18): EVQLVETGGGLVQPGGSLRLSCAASGFELNDYGISWVRQAPGKGPEWVSVIYSDGRRTYYGDSVKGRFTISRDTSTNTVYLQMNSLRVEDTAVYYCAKGRAAGTFDSWGQGTLVTVSS.
1.81, nd, 2.73, nd, 1.88, 1.38 (mean 1.95; controls 0 of 18): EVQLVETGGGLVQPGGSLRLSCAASGFTLNSYGISWVRQAPGKGPEWVSVIYADGLRTFYGDSMKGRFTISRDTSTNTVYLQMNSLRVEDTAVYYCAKGRAAGTNKSWGQGTLVTVSS.
nd, nd, nd, 2.11, nd, nd (controls 0 of 18): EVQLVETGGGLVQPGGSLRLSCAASGDVLKEYGISWVRQAPGKGPEWVSVIYADGMRTSYVQDVKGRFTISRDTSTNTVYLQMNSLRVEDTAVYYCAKGQKGGSYSVWGQGTLVTVSS.
nd, nd, nd, 1.79, 2.73, nd (mean 2.26; controls 0 of 18): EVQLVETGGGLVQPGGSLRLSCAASGFTLNSYGISWVRQAPGKGPEWVSVIYSDGKRTFYADRVKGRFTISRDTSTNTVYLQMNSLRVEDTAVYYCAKGQAAGTFDLWGQGTLVTVSS.
1.38, 2.81, 1.82, 2.18, 2.88, 2.79 (mean 2.31; controls 0 of 18): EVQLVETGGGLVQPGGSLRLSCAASGFTLDLYGISWVRQAPGKGPEWVSVIYSDGRRTFYGDSVKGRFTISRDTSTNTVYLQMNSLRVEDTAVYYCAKGRAAGTFDMWGQGTLVTVSS.
nd, nd, nd, nd, 3.20, nd (controls 0 of 18): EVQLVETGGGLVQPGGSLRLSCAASGFSLNSYGISWVRQAPGKGPEWVSVIYSDGLRTSYGDSVKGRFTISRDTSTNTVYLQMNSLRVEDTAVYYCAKQRAAGTFDSWGQGTLVTVSS.
nd, nd, nd, nd, nd, nd (controls 0 of 18): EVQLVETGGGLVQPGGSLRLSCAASGFTLNSYGISWVRQAPGKGPEWVSVIYSDGRRTFYGDAVKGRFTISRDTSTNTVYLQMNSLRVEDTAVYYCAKGRSSGTFDSWGQGTLVTVSS.
nd, nd, nd, nd, nd, nd (controls 0 of 18): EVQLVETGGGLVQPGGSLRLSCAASGFALNSYGISWVRQAPGKGPEWVSVIYSDGRRTFYADSVKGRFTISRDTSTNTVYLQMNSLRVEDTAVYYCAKGRAAYTFDSWGQGTLVTVSS.
nd, nd, nd, nd, nd, nd (controls 0 of 18): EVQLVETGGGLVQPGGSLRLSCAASGFWLNEYGISWVRQAPGKGPEWVSVIYSDGRRTFYGDSVKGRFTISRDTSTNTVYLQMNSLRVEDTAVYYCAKGRSAGTFDSWGQGTLVTVSS.
nd, nd, nd, nd, nd, nd (controls 0 of 18): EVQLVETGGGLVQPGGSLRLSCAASGFEVDEYGISWVRQAPGKGPEWVSVIYADGKRSMYANKFKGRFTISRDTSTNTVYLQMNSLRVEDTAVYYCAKGHIAGMMFVWGQGTLVTVSS.
nd, nd, nd, nd, nd, nd (controls 0 of 18): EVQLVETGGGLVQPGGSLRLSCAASGFDLNEYGISWVRQAPGKGPEWVSVIYSDGRRTFYADSVKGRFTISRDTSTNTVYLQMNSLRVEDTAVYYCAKGRAAGTFDSWGQGTLVTVSS.

The range of this assay differs from that of the first round, and the authors advise against merging the two. Empty control strains, which show no peptide, gave a signal in 1% of pairings with all heavy chain designs; the median was 2.08 and 95% of these signals were weaker than 0.84. No background was subtracted. The control count says in how many pairings with the empty strains this scFv gave a signal.

Reference: Li et al. 2023, doi:10.1038/s41467-023-39022-2. File: FLAb, binding data.